Results: patent US10370388B2, “Heterocyclic compounds and methods of their use” (NOVARTIS AG, priority 2012, dated 2019)
pIC50: −log10 of the molar value.

The chains behind the UniProt entries cited, without tags or fusion partners.
UniProt P50052, whole entry: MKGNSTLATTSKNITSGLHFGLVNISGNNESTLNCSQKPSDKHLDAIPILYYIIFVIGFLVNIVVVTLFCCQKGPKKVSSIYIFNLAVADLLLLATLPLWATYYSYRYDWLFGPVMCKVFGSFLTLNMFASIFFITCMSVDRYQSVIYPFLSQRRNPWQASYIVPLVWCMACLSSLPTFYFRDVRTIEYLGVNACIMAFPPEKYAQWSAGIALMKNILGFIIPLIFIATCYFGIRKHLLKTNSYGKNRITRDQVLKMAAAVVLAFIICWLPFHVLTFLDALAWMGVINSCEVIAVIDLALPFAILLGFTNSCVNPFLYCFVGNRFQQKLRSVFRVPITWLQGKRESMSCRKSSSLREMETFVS

Target: AT2 receptor (Homo sapiens (Human), UniProt P50052)
Test: AT2 receptor binding assay ([125I]-CGP42112A, HEK293/AT2 receptor cell membranes)
Details: displacement of [125I]-CGP42112A

pIC50: 7.17
SMILES: O=C(O)[C@@H]1C[C@H](N2CCCC(c3ccccc3)C2)CN1C(=O)C(c1ccccc1)c1ccccc1 (stereo partly shown)
